According to paper PMC10726352, “Discovery of KB-0742, a Potent, Selective, Orally Bioavailable Small Molecule Inhibitor of CDK9 for MYC-Dependent Cancers” (Journal of Medicinal Chemistry, 2023):

Tests used:
[1] = mouse
[2] = rat
MT-3 = assay: OncoPanel Multiplexed Cytotoxicity Assay; format: cell-based

Row | SMILES | T1/2 (i.v.) ([1]; i.v. 1.0 mg/kg) | F ([1]; p.o. 20 mg/kg) | Vd,ss (i.v.) ([2]; i.v. 2.0 mg/kg) | F ([2]; p.o. 10 mg/kg) | Cell Count Activity Area (MT-3)
1 | CCC(CC)c1cc(N[C@H]2CC[C@H](N)C2)n2nccc2n1 [Compound 28, [(1S,3S)-3-[[5-(1-Ethylpropyl)pyrazolo[1,5-a]pyrimidin-4-ium-7-yl]amino]cyclopentyl]ammonium Dichloride] | 1.2 h | 33% | 7.3 L/kg | 84.5% | –
2 | CN[C@@H]1C[C@H]2O[C@@](C)([C@@H]1OC)n1c3ccccc3c3c4c(c5c6ccccc6n2c5c31)C(=O)NC4 [Staurosporine] | – | – | – | – | 4.02

Read-outs that look alike come from different tables or passages of the source.
